Literature values in paper PMC3121759 (PLoS ONE, 2011).

Target: T1, GlyT-1 (Rattus norvegicus, UniProt P28572)
T1 construct: the tissues of whole brains or each specific brain region were homogenized; from tissue; host or cells: rat brain (whole brain or dissected regions; male Crl:CD (SD) rats)
T1 sequence (P28572 1-638): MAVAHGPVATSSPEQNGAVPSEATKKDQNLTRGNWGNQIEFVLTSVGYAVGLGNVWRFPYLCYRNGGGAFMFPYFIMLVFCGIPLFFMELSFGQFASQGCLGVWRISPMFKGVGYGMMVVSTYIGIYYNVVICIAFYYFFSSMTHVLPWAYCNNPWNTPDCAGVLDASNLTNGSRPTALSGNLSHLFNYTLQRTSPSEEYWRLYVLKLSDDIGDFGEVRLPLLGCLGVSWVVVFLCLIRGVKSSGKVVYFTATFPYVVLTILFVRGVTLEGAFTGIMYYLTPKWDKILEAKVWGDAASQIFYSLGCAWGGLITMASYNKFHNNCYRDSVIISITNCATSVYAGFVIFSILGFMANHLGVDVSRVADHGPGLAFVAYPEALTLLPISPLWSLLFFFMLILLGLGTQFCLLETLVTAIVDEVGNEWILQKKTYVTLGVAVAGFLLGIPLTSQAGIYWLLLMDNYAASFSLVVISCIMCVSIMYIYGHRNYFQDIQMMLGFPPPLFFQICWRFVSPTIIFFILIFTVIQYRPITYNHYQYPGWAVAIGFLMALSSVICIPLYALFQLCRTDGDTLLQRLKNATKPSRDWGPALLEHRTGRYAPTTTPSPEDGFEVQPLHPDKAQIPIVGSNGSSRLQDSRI
Details: cited from earlier work

NCC(=O)O [Glycine, glycine]
Type of interaction with binding of [3H]SB-733993 and [3H]GSK931145: competitive interactions
